Laboratory results: patent US20110038850A1, “G Protein-Coupled Receptor and Modulators Thereof For The Treatment of Gaba-Related Neurological Disorders Including Sleep-Related Disorders” (priority 2007, published 2011)
Read-outs that look alike come from different tables or passages of the source.

Protein sequences, listed by entry. Tags and fused reporters are not part of them. Lines headed by an entry give the natural chain unless they say otherwise; changes in a name come on top.
UniProt P32247: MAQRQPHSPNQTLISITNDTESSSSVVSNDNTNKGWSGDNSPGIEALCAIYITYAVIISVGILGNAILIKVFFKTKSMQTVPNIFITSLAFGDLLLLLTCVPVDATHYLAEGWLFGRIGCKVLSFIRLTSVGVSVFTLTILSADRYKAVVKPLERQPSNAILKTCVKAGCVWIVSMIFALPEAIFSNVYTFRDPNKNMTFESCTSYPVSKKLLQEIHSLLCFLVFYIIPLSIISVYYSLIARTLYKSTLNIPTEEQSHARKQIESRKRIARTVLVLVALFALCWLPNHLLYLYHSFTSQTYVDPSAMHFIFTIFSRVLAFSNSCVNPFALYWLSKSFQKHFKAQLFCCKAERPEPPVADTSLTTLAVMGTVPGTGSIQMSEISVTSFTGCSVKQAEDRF

Experiments:
[1] = biological target: T1, human BRS-3 (Homo sapiens, UniProt P32247); details: read-out: EC50 at BRS-3 in IP3 accumulation assay; HeLa cells stably transfected with human BRS-3; representative assay, FIG. 3C
[2] = biological target: T1, human BRS-3; details: read-out: EC50 at BRS-3 in melanophore dispersion assay; melanophores transiently transfected with human BRS-3; representative assay, FIG. 3B
[3] = biological target: T1, human BRS-3; details: read-out: EC50 at BRS-3 in FLIPR assay; HeLa cells stably transfected with human BRS-3; representative assay, FIG. 3A
[4] = biological target: endogenous human BRS-3 (Bombesin Receptor Subtype-3 G protein-coupled receptor) (human) (UniProt P32247); experiment: cell-based or functional assay

Substance | EC50 [1] [nM] | EC50 [2] [nM] | EC50 [3] [nM] | EC50 in FLIPR assay (intracellular calcium), HeLa cells stably transfected with human BRS-3 [4] [nM] | EC50 in IP3 accumulation assay, HeLa cells stably transfected with human BRS-3 [4] [nM] | EC50 in melanophore dispersion assay, melanophores transiently transfected with human BRS-3 [4] [nM]
[D-Tyr^6,βAla^11,Phe^13,Nle^14]Bombesin(6-14) | ~0.13 | ~0.26 | ~0.26 | – | – | –
[D-Tyr^6,βAla^11,Phe^13,Nle^14]Bombesin(6-14) (peptide) | – | – | – | 0.26 | 0.13 | 0.26
